# The entries are a selection whose mix differs from that of the whole data set. Activity calls are given as the source filed them.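 The calls were made as follows: active = inhibition above a cutoff: mean of compounds within the control limits plus 3 SD of those (cut at about 17% in these data); inactive = the rest.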
# Amino acid sequences for entries named in this document (tags omitted). A change or cut given only in a name is not applied to a line headed by its entry.
# UniProt Q9HAT2: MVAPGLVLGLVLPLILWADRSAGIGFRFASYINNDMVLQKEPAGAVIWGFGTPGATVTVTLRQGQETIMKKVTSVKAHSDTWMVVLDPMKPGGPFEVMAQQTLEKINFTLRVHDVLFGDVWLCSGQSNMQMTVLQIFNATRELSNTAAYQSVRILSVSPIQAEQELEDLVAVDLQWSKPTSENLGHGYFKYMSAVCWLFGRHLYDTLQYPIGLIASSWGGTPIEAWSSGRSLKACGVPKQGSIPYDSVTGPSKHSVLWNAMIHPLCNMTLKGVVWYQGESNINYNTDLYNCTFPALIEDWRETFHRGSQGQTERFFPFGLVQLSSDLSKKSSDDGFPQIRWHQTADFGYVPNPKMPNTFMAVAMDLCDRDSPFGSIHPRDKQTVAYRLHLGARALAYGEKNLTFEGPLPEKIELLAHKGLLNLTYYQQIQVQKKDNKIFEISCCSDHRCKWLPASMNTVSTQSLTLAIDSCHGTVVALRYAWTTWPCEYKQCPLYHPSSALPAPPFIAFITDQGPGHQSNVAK
# Molecular target: Sialate O-acetylesterase (Homo sapiens) (UniProt Q9HAT2)
# Test: human SIAE inhibitors, primary screen, biochemical, fluorescence polarization, FP-Rh probe, 1536-well HTS (AID 1053197);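 also: 0% = plate median of compound wells and 100% = probe without SIAE protein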
# Details: SIAE FP-Rh probe binding, at 9.66 µM, hits give high values
row,SMILES,inhibition
1,O=[N+]([O-])c1cccc(NC2=NCC(CBr)S2)c1 (stereo unspecified),inactive: -13.1%
2,O=C(O)CNc1ccc([As](=O)(O)O)cc1,inactive: -4.78%
3,CC(C)(C)C(=O)NC(Sc1ccncn1)C(Cl)(Cl)Cl (stereo unspecified),inactive: 5.32%
4,O=[N+]([O-])c1ncn(CCn2ncnc2[N+](=O)[O-])n1,inactive: -2.58%
5,C[C@H]1OP(=O)(Oc2ccccc2)[C@H](O)[C@H](O)[C@H]1N=[N+]=[N-] (stereo partly specified),inactive: 1.41%
6,O=P(Nc1nc2ccccc2s1)(c1ccccc1)c1ccccc1,inactive: -6.51%
7,COc1ccc(N)c([N+](=O)[O-])c1[N+](=O)[O-],inactive: -0.01%
8,Nc1ccc(CCCCOc2ccccc2)cc1,inactive: 2.82%
9,CN(C)C1(CNC(=O)c2ccc(Cl)c(S(N)(=O)=O)c2)CCCCC1,inactive: 4.34%
10,O=P(Nc1ccccn1)(c1ccc(Br)cc1)c1ccc(Br)cc1,inactive: 9.47%
11,C(Cc1nn[nH]n1)Cc1nn[nH]n1,inactive: -8.2%
12,Nc1ccc([As](=O)(O)c2ccc([N+](=O)[O-])cc2)cc1,inactive: 1.41%
13,C/C(N)=N\P(=O)(OCc1ccccc1)OCc1ccccc1,inactive: -2.44%
14,O=C(OC1CN2CCC1CC2)c1cccc(Cl)c1 (stereo unspecified),inactive: 0.44%
15,CC(=O)NC(SC(=S)N(C)C)C(Cl)(Cl)Cl (stereo unspecified),inactive: -4.53%
16,O=[N+]([O-])c1ncn(CCn2cnc([N+](=O)[O-])n2)n1,inactive: 2.48%
17,O=[As](O)(c1ccccc1)c1ccc(O)cc1,inactive: 0.93%
18,c1nnnn1CCn1cnnn1,inactive: 0.71%
19,O=P(Nc1nccs1)(c1ccccc1)c1ccccc1,inactive: 3.37%
20,CC(C)C(=O)NC(Sc1ccccc1)C(Cl)(Cl)Cl (stereo unspecified),inactive: 3.32%
21,CCc1cc(O)c([N+](=O)[O-])c(C)c1[N+](=O)[O-],inactive: -3.75%
22,CC(C)(C)C(=O)NC(Sc1ccccc1)C(Cl)(Cl)Cl (stereo unspecified),inactive: 0.52%
23,CCOc1ccc(C2=NCC(CBr)S2)cc1 (stereo unspecified),inactive: -0.71%

row,SMILES,inhibition
1,O=P1(Nc2nc3ccc(Cl)cc3s2)COc2ccccc2O1 (stereo unspecified),inactive: 2.31%
2,CC(=O)Nc1ccc(Oc2c([N+](=O)[O-])cc([N+](=O)[O-])cc2[N+](=O)[O-])cc1,inactive: 1.63%
3,CC(=O)Nc1ccc([As](=O)(O)O)c(O)c1,inactive: -2.04%
4,COC(=O)C1(C)COP(=O)(NCc2ccccc2)OC1 (stereo unspecified),inactive: 4%
5,CC(=O)c1ccc(N2CC2c2ccncc2)cc1 (stereo unspecified),inactive: 2.16%
6,N#C/C(=C\c1ccc(N(CCBr)CCBr)cc1)C(N)=O,inactive: 8.73%
7,C[C@H]1OP(=O)(Oc2ccccc2)C[C@@H]2O[C@@H]21 (stereo partly specified),inactive: -5.79%
8,C[C@@H]1C=CCP(=O)(Oc2ccccc2)O1 (stereo partly specified),inactive: -4.57%
9,Cc1ccccc1CN(C)C(=O)COC(=O)C(O)(c1ccccc1)c1ccccc1,inactive: 2%
10,O=P1(N(CCCl)CCCl)OCCC2CCCCN21 (stereo unspecified),inactive: 0.93%
11,O=C(NC1CCS(=O)(=O)C1)NP(=S)(Oc1ccccc1)Oc1ccccc1 (stereo unspecified),inactive: -5.42%
12,CCNC(=S)/N=C(\N)N[N+](=O)[O-],inactive: 3.78%
13,Cc1ccc(NP(=O)(Oc2cccc(C)c2)Oc2cccc(C)c2)nc1,inactive: 4.53%
14,c1ccc(-c2nn[nH]n2)c(-c2nn[nH]n2)c1,inactive: -6.66%
15,O=c1c2cc([N+](=O)[O-])ccc2[nH]c2c([N+](=O)[O-])cc([N+](=O)[O-])cc12,inactive: -16.2%
16,CN(C)C(=O)Oc1noc2ccccc12,inactive: -2.79%
17,CC(NC(=O)COC(=O)C(O)(c1ccccc1)c1ccccc1)c1ccccc1 (stereo unspecified),inactive: -3.01%
18,Cc1ccccc1OP(=O)(Nc1ccccn1)Oc1ccccc1C,inactive: -1.84%
19,CC(=O)NC(SC(=S)N(CC(C)C)CC(C)C)C(Cl)(Cl)Cl (stereo unspecified),inactive: 9.28%
20,Cc1ccc(OP(=O)(Nc2ccccn2)Oc2ccc(C)cc2)cc1,inactive: -3.78%
21,COC(=O)c1cc2c(s1)N=C(c1ccccc1)N(C)P2(=O)N1CCOCC1 (stereo unspecified),inactive: -8%
22,CCC(=O)N1C2C3N(C(=O)CC)C1C1N(C(=O)CC)C(C(N1C(=O)CC)N3C(=O)CC)N2C(=O)CC,inactive: -0.49%
23,O=C(OC1CN2CCC1CC2)c1ccccc1 (stereo unspecified),inactive: 2.38%
